The results in this text go back to patent US7629315B2, “Compositions for blocking the inhibitory effect of human CRP on human leptin” (University of Pittsburgh of the Commonwealth System of …, priority 2005, dated 2009).

The assay deals with leptin-induced tyrosine phosphorylation of STAT3. The assay can be described thus: Leptin-induced STAT3 tyrosine phosphorylation in HEK293 cells expressing OB-Rb (western blot), human leptin. The settings on record: human leptin 2 nM, protein pre-incubated with leptin. The format is cell-based. As to the method: 2. Signaling Studies: A HEK293 cell line stably expressing the human long-form receptor, OB-Rb (M. Friedman-Einat et al., 2003, Regul. Pept. 111, 77) was serum starved for 2-h before addition of leptin and CRP. Leptin (SEQ ID NO:4), in the presence or absence of C-reactive proteins, was pre-incubated in μ-MEM for 30 minutes at 37° C. before applied to the cells. After a 30-incubation with leptin (SEQ ID NO:4), the cells were harvested in a previously described protein lysis buffer. A. Z. Zhao et al., 1997, Proc. Natl. Acad. Sci. U.S.A. 94, 322. The protein extract was subjected to a western blot assay with an anti-phospho-STAT3 specific antibody (Cell Signaling, Beverly, Mass.). For studies involving the primary hypothalamic neurons, the rat hypothalamus was surgically isolated right after euthanasia, and immediately placed in the DMEM for incubation with leptin in the presence or absence of CRP.
To determine if the interaction between CRP and leptin influences cellular actions of leptin, we assessed the ability of leptin to stimulate tyrosine phosphorylation of STAT3 and PI3-kinase activity in the presence of CRP in vitro.

Take “human serum albumin: specificity control protein [reference compound]”: the “effect on leptin-induced tyrosine phosphorylation of STAT3” value (“effect” for short) was “did not affect the stimulation of STAT3 by leptin”. The “effect” value (listed as Human serum albumin) is on record as “no appreciable effect on leptin-induced STAT3 phosphorylation”. Further, the “effect” value (listed as human albumin) is “did not significantly alter leptin-stimulated phosphorylation of STAT3”.
